From US20090124608A1, “CB2 Receptor Modulators In Neurodegenerative Diseases And Applications Of The Same” (priority 2006, published 2009) come the findings set out here.

Amino acid sequences for entries named in this document (tags omitted).
UniProt P34972, whole entry: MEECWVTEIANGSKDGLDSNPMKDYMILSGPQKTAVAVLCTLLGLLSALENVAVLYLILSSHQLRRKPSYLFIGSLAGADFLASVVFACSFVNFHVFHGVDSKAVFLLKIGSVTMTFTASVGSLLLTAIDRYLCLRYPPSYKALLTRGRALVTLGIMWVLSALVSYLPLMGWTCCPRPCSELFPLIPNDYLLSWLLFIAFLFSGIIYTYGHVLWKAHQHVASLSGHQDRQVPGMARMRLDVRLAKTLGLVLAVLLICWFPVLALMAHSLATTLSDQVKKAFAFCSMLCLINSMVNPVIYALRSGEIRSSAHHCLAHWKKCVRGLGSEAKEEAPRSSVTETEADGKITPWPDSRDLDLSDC

The assay deals with CB2 receptors (Homo sapiens, UniProt P34972). Put plainly: Antagonism of HU-210 G-protein activation in CHO-CB2 membranes. Particulars: HU-210 100 nM. Type of assay: biochemical.

For the substance “N-[(1S)-endo-1,3,3-Trimethylbicyclo[2.2.1]heptan-2-yl]-5-(4-chloro-3-methylphenyl)-1-(4-ethoxybenzyl)-pyrazole-3-carboxamide [SR-144528]”, the “minimal concentration required to completely block HU-210-mediated G-protein activation by CB2 receptors” value is reported as 3 μM.
